Legend:
Assay type in all cases: cell-based
[1] = substrate: CCCCCCCC(NC(=O)[C@H](CC(=O)O)NC(C)=O)C(=O)O; test: (§1) Activity of recombinant human glutamate carboxypeptidase 2 K699S mutant expressed in Drosophila Schneider's S2 cells using [3H]NAAG as substrate after 30 mins
[2] = substrate: CSCC[C@H](NC(=O)[C@H](CC(=O)O)NC(C)=O)C(=O)O; test: as §1
[3] = substrate: CCCCCCCC(NC(=O)[C@H](CC(=O)O)NC(C)=O)C(=O)O; test: (§2) Ratio of Kcat to Km recombinant human glutamate carboxypeptidase 2 K699S mutant expressed in Drosophila Schneider's S2 cells using [3H]NAAG as substrate after 30 mins
[4] = substrate: CSCC[C@H](NC(=O)[C@H](CC(=O)O)NC(C)=O)C(=O)O; test: as §2

B1: Glutamate carboxypeptidase 2 (Homo sapiens), Q04609 K699S (protein)
chain: MWNLLHETDSAVATARRPRWLCAGALVLAGGFFLLGFLFGWFIKSSNEATNITPKHNMKAFLDELKAENIKKFLYNFTQIPHLAGTEQNFQLAKQIQSQWKEFGLDSVELAHYDVLLSYPNKTHPNYISIINEDGNEIFNTSLFEPPPPGYENVSDIVPPFSAFSPQGMPEGDLVYVNYARTEDFFKLERDMKINCSGKIVIARYGKVFRGNKVKNAQLAGAKGVILYSDPADYFAPGVKSYPDGWNLPGGGVQRGNILNLNGAGDPLTPGYPANEYAYRRGIAEAVGLPSIPVHPIGYYDAQKLLEKMGGSAPPDSSWRGSLKVPYNVGPGFTGNFSTQKVKMHIHSTNEVTRIYNVIGTLRGAVEPDRYVILGGHRDSWVFGGIDPQSGAAVVHEIVRSFGTLKKEGWRPRRTILFASWDAEEFGLLGSTEWAEENSRLLQERGVAYINADSSIEGNYTLRVDCTPLMYSLVHNLTKELKSPDEGFEGKSLYESWTKKSPSPEFSGMPRISKLGSGNDFEVFFQRLGIASGRARYTKNWETNKFSGYPLYHSVYETYELVEKFYDPMFKYHLTVAQVRGGMVFELANSIVLPFDCRDYAVVLRKYADKIYSISMKHPQEMKTYSVSFDSLFSAVKNFTEIASKFSERLQDFDKSNPIVLRMMNDQLMFLERAFIDPLGLPDRPFYRHVIYAPSSHNSYAGESFPGIYDALFDIESKVDPSKAWGEVKRQIYVAAFTVQAAAETLSEVA
[1]
  Km: 2.9 µM
  kcat: 0.37 s⁻¹
[2]
  Km: 2.6 µM
  kcat: 0.25 s⁻¹
[3]
  kcat/Km: 128000 M⁻¹ s⁻¹
[4]
  kcat/Km: 96200 M⁻¹ s⁻¹

From ChEMBL document CHEMBL1926644, “Novel substrate-based inhibitors of human glutamate carboxypeptidase II with enhanced lipophilicity” (J Med Chem, 2011)
